Laboratory results published in ChEMBL document CHEMBL5543132, “Development of (2-(Benzyloxy)phenyl)methanamine Derivatives as Potent and Selective Inhibitors of CARM1 for the Treatment of Melanoma” (J Med Chem, 2024).
The source made the active and inactive calls. The rule behind the calls is not given here.

Chains of the proteins cited; added tags and fusions are not shown.
UniProt O14744, whole entry: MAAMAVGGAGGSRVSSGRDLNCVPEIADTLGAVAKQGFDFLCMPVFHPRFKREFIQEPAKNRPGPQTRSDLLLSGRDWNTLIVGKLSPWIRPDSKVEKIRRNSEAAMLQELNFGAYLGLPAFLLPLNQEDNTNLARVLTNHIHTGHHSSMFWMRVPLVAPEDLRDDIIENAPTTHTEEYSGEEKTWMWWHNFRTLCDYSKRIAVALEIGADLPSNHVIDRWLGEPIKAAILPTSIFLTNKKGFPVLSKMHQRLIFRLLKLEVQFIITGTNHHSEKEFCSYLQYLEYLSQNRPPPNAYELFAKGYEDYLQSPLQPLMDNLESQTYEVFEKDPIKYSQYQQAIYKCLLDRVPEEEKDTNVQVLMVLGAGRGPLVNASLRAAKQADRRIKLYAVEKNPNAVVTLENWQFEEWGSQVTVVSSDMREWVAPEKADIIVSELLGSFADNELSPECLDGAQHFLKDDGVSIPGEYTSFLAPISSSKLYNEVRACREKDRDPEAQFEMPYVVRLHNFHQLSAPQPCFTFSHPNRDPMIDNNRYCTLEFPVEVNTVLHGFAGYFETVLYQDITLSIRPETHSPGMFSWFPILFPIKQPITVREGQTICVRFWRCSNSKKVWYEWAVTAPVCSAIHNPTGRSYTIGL

Assays:
[1] = target: T1, Protein arginine N-methyltransferase 7 (Homo sapiens) (UniProt Q9NVM4); test: Inhibition of PRMT7 (unknown origin) at 100 uM
T1 sequence (whole entry): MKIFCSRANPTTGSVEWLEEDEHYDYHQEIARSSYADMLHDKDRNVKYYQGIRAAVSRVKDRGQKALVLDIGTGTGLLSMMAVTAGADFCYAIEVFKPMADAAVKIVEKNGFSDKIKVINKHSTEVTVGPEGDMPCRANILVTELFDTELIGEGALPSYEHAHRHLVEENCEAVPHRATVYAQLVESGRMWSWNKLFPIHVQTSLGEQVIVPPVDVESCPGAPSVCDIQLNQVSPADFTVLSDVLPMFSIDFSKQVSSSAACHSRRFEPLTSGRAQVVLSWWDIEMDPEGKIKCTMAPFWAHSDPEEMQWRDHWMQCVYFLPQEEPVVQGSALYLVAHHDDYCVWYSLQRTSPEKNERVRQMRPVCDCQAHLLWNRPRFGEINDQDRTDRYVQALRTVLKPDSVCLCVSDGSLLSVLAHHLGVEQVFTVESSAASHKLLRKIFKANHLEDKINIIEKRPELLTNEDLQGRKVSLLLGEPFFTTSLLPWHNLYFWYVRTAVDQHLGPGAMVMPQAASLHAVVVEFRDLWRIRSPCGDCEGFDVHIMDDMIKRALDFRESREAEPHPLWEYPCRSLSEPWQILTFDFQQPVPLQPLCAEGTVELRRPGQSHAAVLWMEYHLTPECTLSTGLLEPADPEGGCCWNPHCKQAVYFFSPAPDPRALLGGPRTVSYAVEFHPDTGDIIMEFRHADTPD

[2] = target: Protein arginine N-methyltransferase 5 (Homo sapiens, UniProt O14744); test: Inhibition of PRMT5 (unknown origin) at 100 uM

inhibition [1]: inactive | inhibition [2]: inactive
SMILES: CNC[C@H](O)CN(C)Cc1ccccc1OCc1ccc(-c2nccs2)c(Cl)c1
